Source: patent US20080299108A1, “Peptides for Diagnostic and Therapeutic Methods for Celiac Sprue” (priority 2005, published 2008)

System: LQLQPFPQPQLPYPQPQLPYPQPQLPYPQPQPF
Experiment: purified protein, by the assay type
Conditions: other: deamidation by tTGase

How did the kcat/Km turn out when “tissue transglutaminase (tTGase) (Homo sapiens)” was run?
Its kcat/Km is 7330 M⁻¹ s⁻¹.
